Values of other authors, collected in article PMC9506049, “Oxidation of p-[^125I]Iodobenzoic Acid and p-[^211At]Astatobenzoic Acid Derivatives and Evaluation In Vivo” (International Journal of Molecular Sciences, 2022).

Settings: literature report; cited from earlier work

For `O=C(O)c1ccc(I(=O)=O)cc1`, the In vitro stability is given as “stable in vitro”.
